## Ab-14 heavy chain CDR variants: yeast mating affinities

The target is the same throughout: PDVDLGDISGINAS, from the HR2 region of SARS-CoV-2 spike.

Parent scFv Ab-14: VH joined to VL by a (GGGGS)3 linker. Changes lie in the heavy chain CDRs alone.
VH: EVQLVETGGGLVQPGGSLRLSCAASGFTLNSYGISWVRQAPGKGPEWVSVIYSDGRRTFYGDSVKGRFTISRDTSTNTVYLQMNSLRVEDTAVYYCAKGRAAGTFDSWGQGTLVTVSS
VL: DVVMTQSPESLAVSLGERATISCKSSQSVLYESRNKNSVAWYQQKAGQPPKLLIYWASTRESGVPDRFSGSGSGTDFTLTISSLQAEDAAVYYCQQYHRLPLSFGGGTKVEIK

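The starting antibody came from a phage panning campaign against this peptide. Designed CDR sequences, proposed from the first random library and measured here. Their group label is 14H_GP_Gen (GP: Gaussian process model; Gen: genetic algorithm; a sequence that several methods proposed may carry one label only). AlphaSeq pools MATa yeast showing the antibodies with MATalpha yeast showing the peptide. The frequency of each diploid, read from paired DNA barcodes, reflects how well the two displayed proteins bind. Each replicate has its own calibration line, from reference interactions of the BCL2 family. There are six technical replicates.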

Each variant is given by its three heavy chain CDRs, as the data file delimits them; those of the parent are GFTLNSYGIS, VIYSDGRRTFYGDSVK, GRAAGTFDS. Values are log10 of the apparent Kd in nM; lower means stronger binding. Replicates are averaged; those with no signal do not enter the mean. "nd" marks a missing value. The strain was present, yet no cells mated with the target were sequenced in that replicate, which points to weak or no binding.

| CDR-H1 | CDR-H2 | CDR-H3 | replicates, log10 nM | mean log10 Kd (nM) | signal with controls |
|---|---|---|---|---|---|
| GFTLNSYGIS | VIYSDGRRTFYGDSVK | GEAAGTFDN | nd / nd / 1.90 / 2.40 / 1.61 / 2.18 | 2.02 | 0 of 18 |
| GFELNSYGIS | VIYSDGRRTFYTDSVK | GRNAGTFDS | 1.64 / 2.46 / 1.24 / nd / 2.41 / 1.73 | 1.90 | 0 of 18 |
| GFPLNEYGIS | VIYSDGRRTFYGDSVK | GKAAGTFDS | 1.11 / 0.24 / 0.14 / -0.07 / 0.38 / 0.37 | 0.36 | 0 of 18 |
| GFDLNSYGIS | VIYSDGRRTFYADKVK | GNAAGTFDS | 0.49 / 0.41 / 0.40 / 0.05 / 0.69 / 0.53 | 0.43 | 1 of 18 (2.94) |
| GFTLNSYGIS | VIYSDGRRTFYSDSVK | GKTAGTFDA | 0.66 / 0.33 / 0.63 / -0.55 / 2.17 / 0.93 | 0.70 | 0 of 18 |
| GFDLNSYGIS | VIYSDGRRAFYGDSVK | GREAGTFDS | 0.37 / 0.10 / 0.17 / 0.22 / 0.46 / 0.06 | 0.23 | 0 of 18 |
| GFELNMYGIS | VIYSDGRRTFYIDSVK | GRTAGTFDS | 0.75 / 0.49 / 1.79 / 0.97 / 0.95 / 0.94 | 0.98 | 1 of 18 (2.65) |
| KFTLNSYGIS | VIYSDGKRTFYGDSVK | GRTAGTFDS | nd / nd / nd / nd / 0.74 / nd | 0.74 | 0 of 18 |
| GFQLNEYGIS | VIYSDGRRTFYHDSVK | GRAAGTFDS | 0.50 / 0.79 / 0.34 / 0.61 / 0.63 / 0.87 | 0.62 | 1 of 18 (1.82) |
| GFELNSYGIS | VIYSDGRRTFYGDSVK | GLNAGTFDS | nd / nd / 1.37 / 0.26 / 0.14 / 1.01 | 0.69 | 0 of 18 |
| KFSLNEYGIS | VIYSDGRRTFYGDSVK | GRNAGTFDS | nd / 1.55 / nd / nd / nd / nd | 1.55 | 1 of 18 (1.88) |
| GFDLNSYGIS | VIYSDGRRTFYGDSVK | GQEAGTFDA | 0.01 / -0.03 / -0.39 / -0.57 / -0.28 / -0.37 | -0.27 | 1 of 18 (1.94) |
| GFELNSYGIS | VIYSDGRRTFYSDSVK | GKNAGTFDS | 0.40 / 0.42 / 0.25 / -0.09 / 0.39 / -0.13 | 0.21 | 0 of 18 |
| GFDLNSYGIS | VIYSDGRRTAYGDSVK | GRIAGTFDS | -0.67 / -0.71 / 0.63 / -0.43 / -0.72 / -0.29 | -0.37 | 0 of 18 |
| GFELNMYGIS | VIYSDGRRTFYGDSVK | GKTAGTFDS | 1.50 / 0.82 / nd / nd / 1.17 / 0.66 | 1.04 | 0 of 18 |
| GFWLNEYGIS | VIYSDGRRTFYGDSVK | GRTAGTFDR | 1.72 / nd / nd / nd / 0.89 / nd | 1.31 | 0 of 18 |
| GFELNSYGIS | VIYADGRRTFYGDSVK | GEAAGTFDV | 2.55 / -0.18 / -0.20 / 0.26 / 0.16 / 0.02 | 0.44 | 0 of 18 |
| GFSLNSYGIS | VIYSDGRRTFYGDQVK | GNVAGTFDS | 0.10 / 0.01 / -0.11 / -0.35 / -0.07 / 0.19 | -0.04 | 0 of 18 |
| GFNLNSYGIS | VIYSDGRRTFYVDKVK | GRQAGTFDS | nd / 2.27 / 1.23 / nd / 1.62 / nd | 1.71 | 1 of 18 (2.15) |
| GFNLNSYGIS | VIYSDGRRTFYGDAVK | GRQAGTFDS | 1.66 / nd / 2.73 / nd / 2.83 / nd | 2.41 | 0 of 18 |
| GFDLNSYGIS | VIYSDGRRTFYGDSVK | GHAAGTFDL | 0.41 / 0.59 / 0.40 / 0.09 / 0.76 / 0.55 | 0.47 | 1 of 18 (1.96) |
| GFTLESYGIS | VIYSDGRRTFYGDSVK | GKVAGTFDS | 1.03 / 1.19 / 1.28 / 1.08 / 1.48 / 1.26 | 1.22 | 0 of 18 |
| GFSLNSYGIS | VIYSDGRRTFYGDSVK | GMQAGTFDS | 0.01 / 0.25 / 0.20 / 0.36 / -0.02 / 0.41 | 0.20 | 0 of 18 |
| GFELNEYGIS | VIYSDGRRTFYGDSVK | GNAAGTFDK | 0.70 / 0.48 / 0.51 / 0.17 / 0.24 / 0.51 | 0.44 | 0 of 18 |
| GFELNSYGIS | VIYSDGRRTFYGDSVK | GKAAGTFDV | 0.47 / 1.43 / 0.12 / nd / 0.80 / 0.90 | 0.74 | 0 of 18 |
| GFDLNSYGIS | VIYSDGRRTFYGDMVK | GQTAGTFDS | 1.12 / 1.75 / 1.28 / 0.40 / 0.62 / 1.54 | 1.12 | 0 of 18 |
| GFTLNEYGIS | VIYSDGRRTFYGDSVK | GKTAGTFDT | 0.25 / -0.09 / -0.26 / 0.24 / 0.24 / 0.19 | 0.09 | 1 of 18 (1.88) |
| GFELNSYGIS | VIYSDGRRTFYADKVK | GRTAGTFDS | nd / -0.03 / 1.29 / 1.86 / 1.35 / 0.70 | 1.03 | 0 of 18 |
| GFHLNSYGIS | VIYSDGKRTFYGDSVK | GKTAGTFDS | nd / nd / nd / nd / nd / nd | nd | 0 of 18 |
| GFWLNEYGIS | VIYSDGRRTMYGDSVK | GRTAGTFDS | 0.78 / 1.12 / 1.41 / 0.48 / 0.30 / 0.64 | 0.79 | 0 of 18 |
| GFDLNSYGIS | VIYSDGQRTFYGDSVK | GREAGTFDS | 0.09 / -0.27 / -0.31 / -0.26 / -0.01 / -0.08 | -0.14 | 0 of 18 |
| GFQLNSYGIS | VIYSDGRRTFYGDQVK | GKTAGTFDS | nd / nd / 2.01 / 1.70 / 3.76 / 1.76 | 2.31 | 0 of 18 |
| GFHLNSYGIS | VIYSDGRRTFYGDSVK | GKIAGTFDS | 1.82 / 2.35 / 2.40 / 1.48 / 1.68 / 2.32 | 2.01 | 1 of 18 (3.27) |
| SFNLNSYGIS | VIYSDGRRTFYGDSVK | GRQAGTFDS | nd / nd / nd / nd / nd / nd | nd | 0 of 18 |
| PFDLNSYGIS | VIYSDGRRTFYADSVK | GRQAGTFDS | nd / nd / nd / nd / nd / nd | nd | 0 of 18 |
| GFHLNSYGIS | VIYSDGRRTFYVDSVK | GEAAGTFDS | 1.75 / nd / nd / nd / nd / 1.06 | 1.40 | 0 of 18 |
| GFELNSYGIS | VIYSDGRRTFYADSVK | GNAAGTFDT | 0.27 / 0.31 / 0.09 / 0.07 / -0.17 / 0.58 | 0.19 | 0 of 18 |
| GFSLNSYGIS | VIYSDGRRTFYGDQVK | GREAGTFDS | 0.28 / 0.31 / 0.60 / 0.41 / 0.49 / 0.64 | 0.46 | 0 of 18 |
| GFELNSYGIS | VIYSDGRRTFYGDSVK | GQAAGTFDV | 0.24 / 0.06 / 0.26 / 0.23 / 0.55 / 0.38 | 0.29 | 0 of 18 |
| GFDLNSYGIS | VIYSDGRRTFYVDEVK | GRTAGTFDS | -0.32 / 0.00 / 1.19 / 0.36 / -0.39 / -0.03 | 0.13 | 0 of 18 |
| GFDLNSYGIS | VIYSDGRRTFYGDQVK | GKEAGTFDS | 1.59 / 1.77 / 0.99 / 1.79 / 1.36 / 1.83 | 1.56 | 0 of 18 |
| GFDLNSYGIS | VIYSDGRRTFYADSVK | GRCAGTFDS | 1.11 / 2.22 / 0.51 / 0.86 / 1.30 / 0.88 | 1.15 | 1 of 18 (2.70) |
| GFTLNSYGIS | VIYSDGKRTFYSDQVK | GEAAGTFDS | 1.16 / nd / 1.26 / 1.22 / 1.59 / 1.15 | 1.28 | 2 of 18 (1.74) |
| GFNLNSYGIS | VIYSDGRRTFYKDSVK | GKQAGTFDS | nd / 1.41 / 0.32 / 1.35 / 1.87 / 2.00 | 1.39 | 1 of 18 (1.89) |
| GFDLNSYGIS | VIYSDGRRTFYGDDVK | GRTAGTFDD | nd / nd / nd / nd / nd / nd | nd | 0 of 18 |
| GFELNSYGIS | VIYSDGRRTFYQDKVK | GRTAGTFDS | 1.05 / 0.20 / 0.84 / 0.38 / nd / 1.30 | 0.75 | 0 of 18 |

The first 6 entries again:

| CDR-H1 | CDR-H2 | CDR-H3 | replicates, log10 nM | mean log10 Kd (nM) | signal with controls |
|---|---|---|---|---|---|
| GFTLNSYGIS | VIYSDGRRTFYGDSVK | GEAAGTFDN | nd / nd / 1.90 / 2.40 / 1.61 / 2.18 | 2.02 | 0 of 18 |
| GFELNSYGIS | VIYSDGRRTFYTDSVK | GRNAGTFDS | 1.64 / 2.46 / 1.24 / nd / 2.41 / 1.73 | 1.90 | 0 of 18 |
| GFPLNEYGIS | VIYSDGRRTFYGDSVK | GKAAGTFDS | 1.11 / 0.24 / 0.14 / -0.07 / 0.38 / 0.37 | 0.36 | 0 of 18 |
| GFDLNSYGIS | VIYSDGRRTFYADKVK | GNAAGTFDS | 0.49 / 0.41 / 0.40 / 0.05 / 0.69 / 0.53 | 0.43 | 1 of 18 (2.94) |
| GFTLNSYGIS | VIYSDGRRTFYSDSVK | GKTAGTFDA | 0.66 / 0.33 / 0.63 / -0.55 / 2.17 / 0.93 | 0.70 | 0 of 18 |
| GFDLNSYGIS | VIYSDGRRAFYGDSVK | GREAGTFDS | 0.37 / 0.10 / 0.17 / 0.22 / 0.46 / 0.06 | 0.23 | 0 of 18 |

In the paper, a design with two or fewer of six values counts as a poor binder. As a blank, each scFv also met three strains without target: over all heavy chain designs, 1% of these pairings were detected, typically at 2.08 and seldom below 0.84. The control count says in how many pairings with the empty strains this scFv gave a signal, with their mean in brackets. Of ten entries with the parent sequence, four were seen in most replicates (averages 0.34 to 2.37), three in one and three in none, so single entries are noisy. Values of this round are not directly comparable with the first-round values of the same sequences.

Values reported by Li et al. 2023, doi:10.1038/s41467-023-39022-2 (FLAb copy).